Tests used:
[1] = molecular target: T1, Duffy Antigen Receptor for Chemokines (DARC) (human) (UniProt Q16570); assay: estimated ka for binding to red blood cells divided by inhibitory ED50 in THP-1 migration
T1 sequence (looked up): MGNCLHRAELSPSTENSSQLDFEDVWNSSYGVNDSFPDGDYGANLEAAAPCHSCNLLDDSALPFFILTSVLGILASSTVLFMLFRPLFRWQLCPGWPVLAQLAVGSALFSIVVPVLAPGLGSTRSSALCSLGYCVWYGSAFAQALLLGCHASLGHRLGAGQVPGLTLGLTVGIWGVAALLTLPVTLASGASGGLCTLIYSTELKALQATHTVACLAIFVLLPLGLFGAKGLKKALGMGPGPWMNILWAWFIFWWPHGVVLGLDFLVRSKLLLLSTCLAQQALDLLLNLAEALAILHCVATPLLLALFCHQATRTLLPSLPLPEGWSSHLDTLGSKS

[2] = molecular target: T1, Duffy Antigen Receptor for Chemokines (DARC) (human); assay: footnote a of Table 6; given as affinity constant
[3] = molecular target: T1, Duffy Antigen Receptor for Chemokines (DARC) (human); assay: estimated ka for binding to red blood cells divided by average inhibitory ED50 in THP-1 migration

| Substance | Duffy selectivity [1] | Kd [2] | Duffy selectivity [3] |
| --- | --- | --- | --- |
| KQK (peptide) | 22.3 | 15 µM |  |
| WVQ (peptide) |  |  | 24.8 |

— patent EP2386565A2, “Compounds and methods to inhibit or augment an inflammatory response” (Cambridge Enterprise Ltd., priority 1999, dated 2000)
